From US20260315612A1, “Topoisomerase Inhibitors, Methods of Making, and Methods of Use Thereof” (NJ Bio, Inc., priority 2023, published 2026)

Tested on: SKBR-3 cell line (human breast cancer)
Experiment: Cytotoxicity Assay (Cell titer glo, 72 h), SKBR-3
Format: cell-based
Details: ratio of payload IC50 to DXD control IC50
Procedure: Day 1: 2,000 cells/well were plated and incubated at 37° C. overnight.
Day 2: Payload/ADC/vehicle control dilutions were made in respective media and added to cells. Volume added: 50 uL to each well. Starting treatment concentration was 1 mM for free payloads/1 μM for ADC's/10% for vehicle control and then diluted 10-fold down for a total of 11 treatment dilutions. Each concentration was analyzed in triplicates. Media-only wells were used as a control to calculate percent viability.
Day 5: Cell titer glow reagent (volume: 50 uL) was added to each well, the plate was shaken for 5 mins and the luminescence was recorded. Drug Treatment Time: 72 hours. Data Analysis: Percent viability was calculated by dividing the luminescence signal obtained for each treated well by the untreated well (media-only control) and multiplying by 100. Data was next transformed using X=Log (x) and then analyzed with nonlinear regression (curve fit), Dose Response inhibition−log (inhibitor) vs response (3 parameters) using PRISM software to determine the IC50 value.

CC[C@@]1(O)C(=O)OCc2c1cc1n(c2=O)Cc2c-1nc1cc(F)c(C)cc1c2Cn1cc(-c2cccc(N)n2)nn1 [Payload 48]
Normalized IC50 (PL IC50/DXD IC50): 6.44
